The values that follow are results of earlier work, collected in patent US20120058541A1, “ENGINEERING RESISTANCE TO ALIPHATIC ALCOHOLS” (BUTAMAX(TM) ADVANCED BIOFUELS LLC, priority 2009, published 2012).

The series concerns producing organisms. The conditions noted are these: generally reported; fermentation of producing organisms; cited from earlier work.

With butanol, the “butanol concentration resulting in profound cellular degradation” value is 12 to 13 g/L.
